In assay [1] the target is T1, Integrin alpha-4/beta-1 (Homo sapiens, UniProt P05556+P13612). The assay can be described thus: Inhibitory binding concentration determined against VCAM/VLA-4 in Ramos. The format is protein-complex assay.
Assay [2] has as its target T1, Integrin alpha-4/beta-1. Description: Inhibitory binding concentration determined against VCAM/VLA-4 in ELISA. The format is protein-complex assay. For orientation: In an ELISA, binding on a coated surface is turned into a signal by an enzyme label.

By UniProt entry, the sequences of proteins in these tests, tags left out.
UniProt P05556, whole entry: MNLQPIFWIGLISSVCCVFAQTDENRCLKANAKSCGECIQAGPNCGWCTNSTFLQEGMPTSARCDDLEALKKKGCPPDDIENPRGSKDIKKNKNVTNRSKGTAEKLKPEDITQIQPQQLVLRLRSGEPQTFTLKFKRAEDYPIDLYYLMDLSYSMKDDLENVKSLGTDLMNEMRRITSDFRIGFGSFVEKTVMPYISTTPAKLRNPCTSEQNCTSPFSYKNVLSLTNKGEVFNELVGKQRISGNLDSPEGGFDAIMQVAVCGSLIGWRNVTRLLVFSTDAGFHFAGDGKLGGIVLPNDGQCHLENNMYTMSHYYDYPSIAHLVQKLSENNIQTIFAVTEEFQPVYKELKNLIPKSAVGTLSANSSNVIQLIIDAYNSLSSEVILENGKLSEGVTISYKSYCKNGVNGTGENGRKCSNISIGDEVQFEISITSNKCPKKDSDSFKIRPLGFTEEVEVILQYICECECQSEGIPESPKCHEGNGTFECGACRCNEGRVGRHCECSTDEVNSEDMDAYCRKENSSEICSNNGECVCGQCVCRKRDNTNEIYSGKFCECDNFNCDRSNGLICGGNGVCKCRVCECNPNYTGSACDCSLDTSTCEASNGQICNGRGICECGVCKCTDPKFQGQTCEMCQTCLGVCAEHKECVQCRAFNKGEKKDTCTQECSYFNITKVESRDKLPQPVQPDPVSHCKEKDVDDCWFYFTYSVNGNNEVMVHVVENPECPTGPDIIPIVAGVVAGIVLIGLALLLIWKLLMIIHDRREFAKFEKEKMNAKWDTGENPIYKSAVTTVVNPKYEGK
UniProt P13612, whole entry: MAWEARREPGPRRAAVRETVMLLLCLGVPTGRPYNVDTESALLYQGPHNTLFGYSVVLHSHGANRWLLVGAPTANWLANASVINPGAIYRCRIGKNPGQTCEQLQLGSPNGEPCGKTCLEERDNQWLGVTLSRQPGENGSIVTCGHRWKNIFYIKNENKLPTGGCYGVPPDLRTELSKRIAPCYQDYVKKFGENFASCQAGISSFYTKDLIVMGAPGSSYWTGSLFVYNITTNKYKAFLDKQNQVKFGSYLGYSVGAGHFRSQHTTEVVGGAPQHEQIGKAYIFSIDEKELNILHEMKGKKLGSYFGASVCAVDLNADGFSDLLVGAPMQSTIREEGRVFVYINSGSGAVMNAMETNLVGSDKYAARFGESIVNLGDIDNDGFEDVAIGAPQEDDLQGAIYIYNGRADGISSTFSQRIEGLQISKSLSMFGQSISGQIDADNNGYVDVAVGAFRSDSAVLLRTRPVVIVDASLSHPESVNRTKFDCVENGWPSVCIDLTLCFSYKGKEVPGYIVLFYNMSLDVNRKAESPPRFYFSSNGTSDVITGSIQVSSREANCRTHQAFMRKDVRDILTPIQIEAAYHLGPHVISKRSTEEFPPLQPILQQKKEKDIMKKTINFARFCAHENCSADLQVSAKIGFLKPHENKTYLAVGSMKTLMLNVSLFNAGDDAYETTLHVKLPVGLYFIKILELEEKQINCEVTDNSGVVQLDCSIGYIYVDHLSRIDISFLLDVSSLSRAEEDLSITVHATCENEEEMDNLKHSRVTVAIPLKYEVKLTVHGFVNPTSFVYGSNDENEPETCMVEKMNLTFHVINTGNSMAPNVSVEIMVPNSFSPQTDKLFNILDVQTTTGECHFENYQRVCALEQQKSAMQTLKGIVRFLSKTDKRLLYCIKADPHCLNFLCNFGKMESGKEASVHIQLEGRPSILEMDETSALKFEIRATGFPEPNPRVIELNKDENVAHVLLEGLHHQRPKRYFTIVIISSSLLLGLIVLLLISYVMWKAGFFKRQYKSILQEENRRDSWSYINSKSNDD

Molecules are shown by their SMILES.

As for `COc1ccc(CC2(C(=O)N[C@@H](Cc3ccc(NC(=O)c4c(Cl)cccc4Cl)cc3)C(=O)O)CCCCC2)cc1`, the IC50 (usually the concentration that gives 50% inhibition) in assay [1] amounted to 250 nM.

Turning to `CNC(=O)N(C)CCC1(C(=O)N[C@@H](Cc2ccc(NC(=O)c3c(Cl)cccc3Cl)cc2)C(=O)O)CCCC1`, the IC50 in assay [2] was 1.15 nM.

Compound `CC(=O)NCCC1(C(=O)N[C@@H](Cc2ccc(NC(=O)c3c(Cl)cccc3Cl)cc2)C(=O)O)CCCC1` registered an IC50 in assay [1] of 8 nM.

(Values after ChEMBL document CHEMBL1135311, “N-Cycloalkanoyl-L-phenylalanine derivatives as VCAM/VLA-4 antagonists” (Bioorg Med Chem Lett, 2002).)
